# pIC50: −log10 of the molar value.
# By UniProt entry, the sequences of proteins in these tests, tags left out.
# UniProt P23219, whole entry: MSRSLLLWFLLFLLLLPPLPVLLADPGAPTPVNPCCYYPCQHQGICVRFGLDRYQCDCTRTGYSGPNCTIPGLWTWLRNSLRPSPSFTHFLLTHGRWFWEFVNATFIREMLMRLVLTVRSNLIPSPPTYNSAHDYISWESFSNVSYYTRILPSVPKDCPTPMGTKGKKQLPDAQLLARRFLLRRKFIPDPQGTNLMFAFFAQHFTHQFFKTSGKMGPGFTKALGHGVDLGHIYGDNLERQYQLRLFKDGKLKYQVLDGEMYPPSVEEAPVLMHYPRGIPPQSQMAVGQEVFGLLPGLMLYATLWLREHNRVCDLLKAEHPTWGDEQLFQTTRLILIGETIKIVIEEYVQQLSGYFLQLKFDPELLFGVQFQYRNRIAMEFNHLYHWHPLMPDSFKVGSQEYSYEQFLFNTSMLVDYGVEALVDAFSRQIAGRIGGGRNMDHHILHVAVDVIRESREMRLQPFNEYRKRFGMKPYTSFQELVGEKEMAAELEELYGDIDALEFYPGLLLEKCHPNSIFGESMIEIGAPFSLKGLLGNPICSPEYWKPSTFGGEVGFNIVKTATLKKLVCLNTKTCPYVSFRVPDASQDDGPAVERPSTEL
# Biological target: Prostaglandin G/H synthase 1 (Homo sapiens, UniProt P23219)
smiles,measurement,value
CC(C(=O)O)c1ccc(-c2ccccc2)c(F)c1 (stereo unspecified) [FLURBIPROFEN],pIC50,8.00
